# Measured affinities in a library of Ab-95 light chain variants

Target peptide (SARS-CoV-2 spike, HR2 region): PDVDLGDISGINAS

Parent scFv Ab-95: VH joined to VL by a (GGGGS)3 linker. Changes lie in the light chain CDRs alone.
VH: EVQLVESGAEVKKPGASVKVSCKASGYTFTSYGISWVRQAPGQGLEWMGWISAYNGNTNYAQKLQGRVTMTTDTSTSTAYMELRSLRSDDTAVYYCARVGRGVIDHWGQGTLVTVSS
VL: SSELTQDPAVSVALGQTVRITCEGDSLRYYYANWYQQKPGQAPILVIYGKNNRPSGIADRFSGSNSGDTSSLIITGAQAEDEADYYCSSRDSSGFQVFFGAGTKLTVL

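The parent was found by panning a naive human phage display library on the peptide. In library AAYL52, one, two or three CDR residues were substituted; doubles and triples were drawn at random. AlphaSeq pools MATa yeast showing the antibodies with MATalpha yeast showing the peptide. Mating (16 h, 30 °C) was followed by selection of diploids and sequencing of their barcodes. Scores were corrected for input abundance and mapped to Kd with protein pairs of known affinity run in the same pool. Each pool was mated in three replicate cultures.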

The whole VL of each variant is written out. Every variant below is changed at R53 of the VL (sequential numbering). Kd is apparent (estimated from mating counts) and averaged on the log scale over replicates with a signal. Smaller is tighter. "nd" means that the variant was in the library but no mating with the target was seen in any replicate; the authors take this as a sign of poor binding, and no number exists. Background: pairings of library AAYL52 with three empty control strains gave a value in 28% of cases (median 8.2 µM, 5th percentile 800 nM). Values in that range, when seen in few replicates, are hard to tell from nonspecific mating.

Variant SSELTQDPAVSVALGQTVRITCEGDSLRYYYANWYQQKPGQAPILVIYGKNNAPSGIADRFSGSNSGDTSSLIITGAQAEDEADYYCSHRTSSGFQVFFGAGTKLTVL showed 28 µM (2 of 3 replicates). For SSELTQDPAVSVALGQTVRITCEGDSLRYYYANWYQQKPGQAPILVIYGKNNFPQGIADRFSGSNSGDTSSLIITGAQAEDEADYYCSSRDSSIFQVFFGAGTKLTVL, the assay gave 26 µM (2 of 3 replicates). Variant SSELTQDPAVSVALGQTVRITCEGDKLRYYYANWYQQKPGQAPILVIYGKNNCPLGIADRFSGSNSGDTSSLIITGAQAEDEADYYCSSRDSSGFQVFFGAGTKLTVL gave 11 µM (2 of 3 replicates). Variant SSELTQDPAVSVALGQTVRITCEGDSLRYRYANWYQQKPGQAPILVIYGKNDKPSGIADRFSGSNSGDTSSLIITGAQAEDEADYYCSSRDSSGFQVFFGAGTKLTVL gave 7.6 nM (3 of 3 replicates). Variant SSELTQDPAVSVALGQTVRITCNGDSLRYRYANWYQQKPGQAPILVIYGKNNSPSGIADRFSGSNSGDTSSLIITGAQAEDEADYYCSSRDSSGFQVFFGAGTKLTVL showed 74 nM (3 of 3 replicates). Variant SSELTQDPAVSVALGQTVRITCEGDRLRYYYANWYQQKPGQAPILVIYGKNNCPSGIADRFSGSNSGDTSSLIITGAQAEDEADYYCSSRDSSGFQYFFGAGTKLTVL gave nd (0 of 3 replicates).

With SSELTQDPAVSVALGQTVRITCEGTSLRYYYANWYQQKPGQAPILVIYGKNNQPSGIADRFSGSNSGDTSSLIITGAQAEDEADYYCSSRRSSGFQVFFGAGTKLTVL the result was 7.7 µM (2 of 3 replicates). With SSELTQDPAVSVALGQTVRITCEGDSLRYYYANWYQQKPGQAPILVIYGKNNDPSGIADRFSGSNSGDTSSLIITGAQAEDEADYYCSSRDSSGFQVFFGAGTKLTVL the result was 1.6 µM (1 of 3 replicates). Variant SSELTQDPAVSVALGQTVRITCEGDSLRYYYANWYQQKPGQAPILVIYGKNNKPSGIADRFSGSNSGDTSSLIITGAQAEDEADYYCNSKDSSGFQVFFGAGTKLTVL showed 1.8 µM (3 of 3 replicates). With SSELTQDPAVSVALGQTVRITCEGDSLRYYYANWYQQKPGQAPILVIYGKNWQPSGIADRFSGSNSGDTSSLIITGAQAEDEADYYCSERDSSGFQVFFGAGTKLTVL the result was 170 µM (1 of 3 replicates). Variant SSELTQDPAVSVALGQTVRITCNGDSLRYYYANWYQQKPGQAPILVIYGSNNMPSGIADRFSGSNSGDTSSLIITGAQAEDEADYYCSSRDSSGFQVFFGAGTKLTVL showed 3.5 µM (2 of 3 replicates). For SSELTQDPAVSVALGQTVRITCEGDSGRYYYANWYQQKPGQAPILVIYGKNNAPSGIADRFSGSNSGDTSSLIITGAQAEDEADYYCSSRDFSGFQVFFGAGTKLTVL, the assay gave nd (0 of 3 replicates).

Variant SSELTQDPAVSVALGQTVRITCEGDSLRYYYINWYQQKPGQAPILVIYGKNNTPSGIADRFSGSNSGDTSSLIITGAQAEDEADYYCSSRDSSDFQVFFGAGTKLTVL showed 20 µM (1 of 3 replicates). With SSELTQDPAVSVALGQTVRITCEGPSLRYYYANWYQQKPGQAPILVIYGKNNWPSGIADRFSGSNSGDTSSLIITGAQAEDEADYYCSWRDSSGFQVFFGAGTKLTVL the result was nd (0 of 3 replicates). With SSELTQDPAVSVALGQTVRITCEGDSLFYYYANWYQQKPGQAPILVIYCKNNKPSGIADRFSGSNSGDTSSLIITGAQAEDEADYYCSSRDSSGFQVFFGAGTKLTVL the result was 6.1 µM (1 of 3 replicates). Variant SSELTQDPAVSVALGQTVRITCEGDSLRNYYANWYQQKPGQAPILVIYGKNNLPGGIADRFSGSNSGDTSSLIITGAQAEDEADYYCSSRDSSGFQVFFGAGTKLTVL gave 360 nM (3 of 3 replicates). With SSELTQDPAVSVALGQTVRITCEPDSLRYYYANWYQQKPGQAPILVIYGKNNTPSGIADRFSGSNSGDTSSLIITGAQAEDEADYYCSSRDSSGFQVRFGAGTKLTVL the result was 8.1 µM (1 of 3 replicates). Variant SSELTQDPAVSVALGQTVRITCEGDSLRYYYANWYQQKPGQAPILVIYGKNNMPSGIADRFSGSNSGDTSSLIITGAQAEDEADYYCSSRDSSGHLVFFGAGTKLTVL gave 400 µM (1 of 3 replicates).

With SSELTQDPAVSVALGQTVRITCEGDFLRYYYANWYQQKPGQAPILVIYGKNNMPSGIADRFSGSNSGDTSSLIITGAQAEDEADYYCSSRDSSGFQVKFGAGTKLTVL the result was 33 µM (1 of 3 replicates).

Excerpt, the final 2 entries:

| VL | Kd (apparent) | detected |
|---|---|---|
| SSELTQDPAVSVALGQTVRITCEGDSLRYYYANWYQQKPGQAPILVIYGKNNMPSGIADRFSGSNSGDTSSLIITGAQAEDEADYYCSSRDSSGHLVFFGAGTKLTVL | 400 µM | 1 of 3 |
| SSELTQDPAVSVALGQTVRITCEGDFLRYYYANWYQQKPGQAPILVIYGKNNMPSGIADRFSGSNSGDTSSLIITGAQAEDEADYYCSSRDSSGFQVKFGAGTKLTVL | 33 µM | 1 of 3 |

Reference: Engelhart et al. 2022, doi:10.1038/s41597-022-01779-4. File: FLAb, binding data.